The target in this test is Guanylate cyclase C (GC-C) on human T84 cells (human), P25092. Briefly: cell-based or functional assay.

B1: Peptide 1 (peptide)
peptide: CCELCCNPACTGCY
modifications: not checked
Turning to B1, the EC50, cGMP response in T84 cells, pH 5 was 13.4 nM; the EC50, cGMP response in T84 cells, pH 8 is 114 nM; the Ratio EC50 pH 8/EC50 pH 5 came to 8.5.

Source of the values: US20140348942A1, “Treatments for gastrointestinal disorders” (published 2014).
